Experimental data from ChEMBL document CHEMBL1125892 (J Med Chem, 1991).

The chains behind the UniProt entries cited, without tags or fusion partners.
UniProt P19327, whole entry: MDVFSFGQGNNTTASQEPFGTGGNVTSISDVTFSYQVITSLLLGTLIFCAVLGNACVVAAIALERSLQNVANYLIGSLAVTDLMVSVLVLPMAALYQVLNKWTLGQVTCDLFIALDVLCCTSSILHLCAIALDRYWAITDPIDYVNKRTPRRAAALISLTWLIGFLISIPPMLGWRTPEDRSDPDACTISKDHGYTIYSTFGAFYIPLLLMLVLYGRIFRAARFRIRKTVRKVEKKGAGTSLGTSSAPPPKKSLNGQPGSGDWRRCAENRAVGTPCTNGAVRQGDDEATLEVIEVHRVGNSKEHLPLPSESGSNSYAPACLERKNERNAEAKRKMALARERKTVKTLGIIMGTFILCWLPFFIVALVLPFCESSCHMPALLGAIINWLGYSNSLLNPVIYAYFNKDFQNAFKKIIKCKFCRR

Target: 5-hydroxytryptamine receptor 1A (Rattus norvegicus, UniProt P19327)
Assay: Binding affinity against 5-hydroxytryptamine 1A receptor of rat hippocampal tissue with [3H]8-OH-DPAT
Type: tissue-based, Hippocampus

Structure (SMILES): O=C1CC2(CCCC2)CC(=O)N1CCCCN1CCN(c2nsc3ccccc23)CC1 [TIOSPIRONE]
- IC50: 2.85 nM
